Data from US9795646B2, “Boswellia oil, its fractions and compositions for enhancing brain function” (LAILA NUTRACEUTICALS, priority 2010, dated 2017).

By UniProt entry, the sequences of proteins in these tests, tags left out. Residues count along the entry.
UniProt P22303, 32-614, species assumed: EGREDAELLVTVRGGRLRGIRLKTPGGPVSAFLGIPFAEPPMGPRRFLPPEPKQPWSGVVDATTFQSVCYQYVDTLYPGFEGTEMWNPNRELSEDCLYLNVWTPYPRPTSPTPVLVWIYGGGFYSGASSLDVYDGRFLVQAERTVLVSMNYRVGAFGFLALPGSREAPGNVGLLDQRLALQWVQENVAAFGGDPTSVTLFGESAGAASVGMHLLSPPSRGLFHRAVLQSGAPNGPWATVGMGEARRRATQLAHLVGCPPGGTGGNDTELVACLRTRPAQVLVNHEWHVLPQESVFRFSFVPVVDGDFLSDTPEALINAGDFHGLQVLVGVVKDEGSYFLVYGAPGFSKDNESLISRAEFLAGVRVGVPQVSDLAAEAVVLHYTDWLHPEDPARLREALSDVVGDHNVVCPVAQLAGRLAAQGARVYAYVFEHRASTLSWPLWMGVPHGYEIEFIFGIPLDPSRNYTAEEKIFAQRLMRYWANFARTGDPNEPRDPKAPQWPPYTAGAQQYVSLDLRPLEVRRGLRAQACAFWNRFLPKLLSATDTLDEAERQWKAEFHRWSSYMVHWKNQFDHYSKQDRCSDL

Biological target: Acetylcholinesterase (Homo sapiens, UniProt P22303)
Assay: Acetylcholinesterase inhibitory activity, in vitro enzymatic assay (Ellman method)
Assay type: biochemical

CN(C)C(=O)Oc1cccc([N+](C)(C)C)c1 [Neostigmin]
% Inhibition at concentrations of 10 ng (Table 2): 25.17% | % Inhibition at concentrations of 10 ng (Table 3): 25.17% | % Inhibition at concentrations of 25 ng (Table 2): 37.19% | % Inhibition at concentrations of 25 ng (Table 3): 37.19% | % Inhibition at concentrations of 50 ng (Table 2): 54.69% | % Inhibition at concentrations of 50 ng (Table 3): 54.69%
